Values quoted from earlier work, collected in patent US20050255047A1, “Smoke composition” (published 2005).

System: insects

In the case of Cc1c(COC(=O)[C@@H]2[C@H](/C=C(\Cl)C(F)(F)F)C2(C)C)cccc1-c1ccccc1, the “conventional usage dose for a smoke” value is listed as 9 mg/m^3.
